# Where two headings read alike, the source gives them in different places.
# Legend:
# B*4002 (B61) = B*4002 (B61) (Homo sapiens, UniProt P01889, A65T/A93T/A95T/D138N/D201E/D98Y/E176V/E204Q/E69K/K202T/N87E/Q56L/Q94N/R180L/S48T/Y33H/Y91S); assay: B44 supertype peptide binding, B*4002; settings: read-out: B* 4002
# B*4501 = B*4501 (Homo sapiens, UniProt P01889, A329T/A65T/A93T/A95T/C349S/D138N/D201E/D98Y/E176V/E187L/E204Q/E69K/H137Y/K202T/L119W/N87E/Q56L/Q94N/R155S/R180D/S121R/S35A/S48T/V127L/V306I/V36M/W191S/Y140L/Y33H/Y91S); assay: B44 supertype peptide binding, B*4501; settings: read-out: B* 4501
# B*1801 = B*1801 (Homo sapiens, UniProt P01889, A329T/A93T/A95T/C349S/D201E/D54G/D98Y/E176V/E187T/E204Q/E69T/K202T/Q94N/R155S/R180L/S121R/V306I/Y140S/Y195H/Y33H/Y91S); assay: B44 supertype peptide binding, B*1801
# B*4402 = B*4402 (Homo sapiens, UniProt P01889, A223V/A65T/A93T/A95T/D201E/D98Y/E176V/E187L/E204Q/E69K/G107R/H137Y/K202T/L105A/L119I/N104T/N87E/Q56L/Q94N/R106L/R155S/R180D/S101N/S121R/S35A/S48T/T118I/V36M/W191S/Y140D/Y91S); assay: B44 supertype peptide binding, B*4402; settings: read-out: B* 4402
# [1] = test system: B44 supertype (B*1801, B*4001, B*4002, B*4402, B*4403, B*4501); assay: B44 supertype cross-binding (degeneracy, number of alleles bound); parameters: species or system human; settings: number of the six B44 alleles bound
# B*4001(B60) = B*4001(B60) (Homo sapiens, UniProt P01889, A65T/A93T/A95T/D138N/D98Y/E176V/E69K/N87E/Q56L/Q94N/R180L/S121R/S35A/S48T/T167S/V36M/W171L/Y33H/Y91S); assay: B44 supertype peptide binding, B*4001; settings: read-out: B* 4001
# [2] = Table 28: p53-derived B44 peptides
# [3] = Table 29: MAGE2-derived B44 peptides
SMILES,IC50 (B*4002 (B61); [2]) [µM],IC50 (B*4501; [2]) [µM],IC50 (B*1801; [2]) [µM],IC50 (B*4402; [2]) [µM],"Degeneracy [1, 2]",IC50 (B*4001(B60); [2]) [µM],IC50 (B*4501; [3]) [µM],IC50 (B*1801; [3]) [µM],IC50 (B*4402; [3]) [µM],"Degeneracy [1, 3]",IC50 (B*4001(B60); [3]) [µM],IC50 (B*4002 (B61); [3]) [µM]
N=C(N)NCCC[C@H](NC(=O)[C@H](CCC(=O)O)NC(=O)[C@@H](N)Cc1c[nH]cn1)C(=O)N[C@@H](CS)C(=O)N[C@@H](CO)C(=O)N[C@@H](CC(=O)O)C(=O)N[C@@H](CO)C(=O)N[C@@H](CC(=O)O)C(=O)NCC(=O)O [compound 614],> 10,13.4,1.12,2.03,2,–,–,–,–,–,–,–
CC(C)C[C@H](NC(=O)[C@H](CCC(=O)O)NC(=O)[C@@H](N)CC(C)C)C(=O)N[C@@H](CCCCN)C(=O)N[C@@H](CC(=O)O)C(=O)N[C@@H](C)C(=O)N[C@@H](CCC(N)=O)C(=O)N[C@@H](C)C(=O)NCC(=O)O [compound 620],3.66,1.99,–,5.13,2,18.7,–,–,–,–,–,–
CC(C)C[C@H](NC(=O)[C@H](Cc1ccc(O)cc1)NC(=O)[C@H](CCC(=O)O)NC(=O)[C@@H](N)C(C)C)C(=O)N[C@@H](CC(=O)O)C(=O)N[C@@H](CC(=O)O)C(=O)N[C@@H](CCCNC(=N)N)C(=O)N[C@@H](CC(N)=O)C(=O)N[C@H](C(=O)O)[C@@H](C)O [compound 628],> 10,13.5,1.44,10.1,1,> 10,–,–,–,–,–,–
CSCC[C@H](NC(=O)[C@H](CCC(=O)O)NC(=O)[C@H](C)N)C(=O)N[C@@H](CC(C)C)C(=O)N[C@@H](CCC(=O)O)C(=O)N[C@@H](CO)C(=O)N[C@H](C(=O)N[C@@H](CC(C)C)C(=O)O)C(C)C [compound 658],–,–,–,–,–,–,0.302,0.968,0.327,5,–,–
CSCC[C@H](NC(=O)[C@H](CO)NC(=O)[C@H](CC(C)C)NC(=O)[C@H](CCC(=O)O)NC(=O)[C@@H](N)CCC(=O)O)C(=O)N[C@@H](CC(C)C)C(=O)N[C@@H](CCC(=O)O)C(=O)N[C@H](C(=O)N[C@@H](Cc1ccccc1)C(=O)N[C@@H](CCC(=O)O)C(=O)NCC(=O)O)C(C)C [compound 663],–,–,–,–,–,–,0.163,0.0015,–,5,> 10,0.294
CC(C)C[C@H](NC(=O)[C@H](C)NC(=O)[C@H](CCC(=O)O)NC(=O)CNC(=O)[C@H](CCCNC(=N)N)NC(=O)[C@H](C)NC(=O)[C@H](CCC(=O)O)NC(=O)[C@@H](N)CC(C)C)C(=O)O [compound 668],–,–,–,–,–,–,> 10,0.163,> 10,4,0.099,–
CC(C)C[C@H](NC(=O)CNC(=O)[C@H](CC(C)C)NC(=O)[C@H](C)NC(=O)[C@H](CCC(=O)O)NC(=O)CNC(=O)[C@H](CCCNC(=N)N)NC(=O)[C@H](C)NC(=O)[C@H](CCC(=O)O)NC(=O)[C@@H](N)CC(C)C)C(=O)O [compound 669],–,–,–,–,–,–,3.05,–,2.27,4,0.184,0.277
CC(C)C[C@H](NC(=O)CNC(=O)[C@H](CC(C)C)NC(=O)[C@H](C)NC(=O)[C@H](CCC(=O)O)NC(=O)CNC(=O)[C@H](CCCNC(=N)N)NC(=O)[C@H](C)NC(=O)[C@H](CCC(=O)O)NC(=O)[C@@H](N)CC(C)C)C(=O)N[C@H](C(=O)O)C(C)C [compound 670],–,–,–,–,–,–,1.91,0.158,> 10,4,0.198,–
CSCC[C@H](NC(=O)[C@H](CCC(=O)O)NC(=O)[C@H](C)NC(=O)[C@H](CCCCN)NC(=O)[C@@H](NC(=O)[C@@H](NC(=O)[C@@H]1CCCN1C(=O)[C@H](CCC(=O)O)NC(=O)[C@@H](N)CCCNC(=N)N)C(C)C)[C@@H](C)O)C(=O)N[C@@H](CC(C)C)C(=O)O [compound 674],–,–,–,–,–,–,0.917,–,0.763,4,–,0.264
CC[C@H](C)[C@H](NC(=O)[C@@H]1CCCN1C(=O)[C@@H](NC(=O)[C@@H](NC(=O)[C@H](CCC(=O)O)NC(=O)[C@@H](N)C(C)C)C(C)C)C(C)C)C(=O)N[C@@H](CO)C(=O)N[C@@H](Cc1c[nH]cn1)C(=O)N[C@@H](CC(C)C)C(=O)O [compound 676],–,–,–,–,–,–,13.8,0.149,9.08,4,–,–
CC[C@H](C)[C@H](NC(=O)[C@H](Cc1ccc(O)cc1)NC(=O)[C@H](CC(C)C)NC(=O)[C@H](Cc1c[nH]cn1)NC(=O)[C@H](CO)NC(=O)[C@@H](NC(=O)[C@@H]1CCCN1C(=O)[C@@H](NC(=O)[C@@H](NC(=O)[C@H](CCC(=O)O)NC(=O)[C@@H](N)C(C)C)C(C)C)C(C)C)[C@@H](C)CC)C(=O)N[C@@H](CC(C)C)C(=O)O [compound 678],–,–,–,–,–,–,–,0.191,0.935,4,–,–
CC(C)C[C@H](NC(=O)CNC(=O)[C@H](CC(C)C)NC(=O)[C@H](C)NC(=O)[C@H](CCC(=O)O)NC(=O)CN)C(=O)N[C@H](C(=O)NCC(=O)N[C@@H](C)C(=O)O)C(C)C [compound 684],–,–,–,–,–,–,–,9.53,6.13,3,–,–
CC[C@H](C)[C@H](NC(=O)[C@H](CCCCN)NC(=O)[C@H](CCC(=O)O)NC(=O)[C@@H](N)CCC(=O)O)C(=O)N[C@@H](Cc1c[nH]c2ccccc12)C(=O)N[C@@H](CCC(=O)O)C(=O)N[C@@H](CCC(=O)O)C(=O)N[C@@H](CC(C)C)C(=O)O [compound 701],–,–,–,–,–,–,–,0.753,12.4,2,9.08,–
CC[C@H](C)[C@H](NC(=O)[C@H](CCCCN)NC(=O)[C@H](CCC(=O)O)NC(=O)[C@@H](N)CCC(=O)O)C(=O)N[C@@H](Cc1c[nH]c2ccccc12)C(=O)N[C@@H](CCC(=O)O)C(=O)N[C@@H](CCC(=O)O)C(=O)N[C@@H](CC(C)C)C(=O)N[C@@H](CO)C(=O)N[C@@H](CCSC)C(=O)N[C@@H](CC(C)C)C(=O)O [compound 702],–,–,–,–,–,–,–,1.64,1.86,2,4.98,> 10
CC(C)C[C@H](N)C(=O)N[C@@H](CCC(=O)O)C(=O)N[C@H](C(=O)N[C@@H](Cc1ccccc1)C(=O)N[C@@H](CCC(=O)O)C(=O)NCC(=O)N[C@@H](CCCNC(=N)N)C(=O)N[C@@H](CCC(=O)O)C(=O)N[C@@H](CC(=O)O)C(=O)N[C@@H](CO)C(=O)N[C@H](C(=O)O)C(C)C)C(C)C [compound 703],–,–,–,–,–,–,> 10,0.639,> 10,2,2.62,–
CC(C)[C@H](NC(=O)[C@H](CO)NC(=O)[C@H](CC(=O)O)NC(=O)[C@H](CCC(=O)O)NC(=O)[C@H](CCCNC(=N)N)NC(=O)CNC(=O)[C@H](CCC(=O)O)NC(=O)[C@@H](N)Cc1ccccc1)C(=O)N[C@@H](Cc1ccccc1)C(=O)N[C@@H](C)C(=O)O [compound 704],–,–,–,–,–,–,–,0.242,–,2,> 10,4.78
CSCC[C@H](NC(=O)[C@H](CCCNC(=N)N)NC(=O)[C@@H]1CCCN1C(=O)CNC(=O)[C@H](CCC(=O)O)NC(=O)[C@H](CCC(=O)O)NC(=O)[C@@H](N)CCC(=O)O)C(=O)N[C@@H](Cc1ccccc1)C(=O)O [compound 708],–,–,–,–,–,–,0.943,–,2.41,1,–,> 10
CC[C@H](C)[C@H](NC(=O)[C@H](CCCCN)NC(=O)[C@H](CCC(=O)O)NC(=O)[C@H](CCC(=O)O)NC(=O)[C@@H]1CCCN1)C(=O)N[C@@H](Cc1c[nH]c2ccccc12)C(=O)N[C@@H](CCC(=O)O)C(=O)N[C@@H](CCC(=O)O)C(=O)N[C@@H](CC(C)C)C(=O)O [compound 710],–,–,–,–,–,–,17.3,0.577,2.89,1,19.4,3.91
CSCC[C@H](NC(=O)[C@H](CO)NC(=O)[C@H](CC(C)C)NC(=O)[C@H](CCC(=O)O)NC(=O)[C@H](CCC(=O)O)NC(=O)[C@@H](N)Cc1c[nH]c2ccccc12)C(=O)N[C@@H](CC(C)C)C(=O)O [compound 716],–,–,–,–,–,–,> 10,–,> 10,0,0.781,0.74
